Key:
Assay in all cases: Kinase profiling, Lantha
IRAK3 = IRAK3 (Homo sapiens, UniProt Q9Y616); conditions: 1 μM, KmATP
DMPK = DMPK (Homo sapiens, UniProt Q09013); conditions: 1 μM, KmATP
CAMK2G = CAMK2G (Homo sapiens, UniProt Q13555); conditions: 1 μM, KmATP
CDK11(Inactive) = conditions: 1 μM, KmATP
ULK3 = ULK3 (Homo sapiens, UniProt Q6PHR2); conditions: 1 μM, KmATP
BMPR2 = BMPR2 (Homo sapiens, UniProt Q13873); conditions: 1 μM, KmATP
MYLK4 = MYLK4 (Homo sapiens, UniProt Q86YV6); conditions: 1 μM, KmATP
TEC = TEC (Homo sapiens, UniProt P42680); conditions: 1 μM, KmATP
STK16 (PKL12) = STK16 (PKL12) (Homo sapiens, UniProt O75716); conditions: 1 μM, KmATP
SIK3 = SIK3 (Homo sapiens, UniProt Q9Y2K2); conditions: 1 μM, KmATP
CDK2/Cyclin O = CDK2/Cyclin O (Homo sapiens, UniProt P24941); conditions: 1 μM, KmATP
MAPK10 (JNK3) = MAPK10 (JNK3) (Homo sapiens, UniProt P53779); conditions: 1 μM, KmATP
CDK9/cyclin K = CDK9/cyclin K (Homo sapiens, UniProt P50750); conditions: 1 μM, KmATP
TTK = TTK (Homo sapiens, UniProt P33981); conditions: 1 μM, KmATP
SIK1 = SIK1 (Homo sapiens, UniProt P57059); conditions: 1 μM, KmATP
NUAK2 = NUAK2 (Homo sapiens, UniProt Q9H093); conditions: 1 μM, KmATP
MAP2K6 (MKK6) = MAP2K6 (MKK6) (Homo sapiens, UniProt P52564); conditions: 1 μM, KmATP
LATS2 = LATS2 (Homo sapiens, UniProt Q9NRM7); conditions: 1 μM, KmATP
ACVR1 (ALK2) = ACVR1 (ALK2) (Homo sapiens, UniProt Q04771)
PRKACB = PRKACB (Homo sapiens, UniProt P22694); conditions: 1 μM, KmATP
GAK = GAK (Homo sapiens, UniProt O14976); conditions: 1 μM, KmATP
ERN2 = ERN2 (Homo sapiens, UniProt Q76MJ5); conditions: 1 μM, KmATP
STK38L (NDR2) = STK38L (NDR2) (Homo sapiens, UniProt Q9Y2H1); conditions: 1 μM, KmATP
CAMKK2 (Beta) = CAMKK2 (Beta) (Homo sapiens, UniProt Q96RR4); conditions: 1 μM, KmATP
BRSK2 = BRSK2 (Homo sapiens, UniProt Q8IWQ3); conditions: 1 μM, KmATP
CDK3/cyclin E1 = CDK3/cyclin E1 (Homo sapiens, UniProt Q00526); conditions: 1 μM, KmATP
LIMK2 = LIMK2 (Homo sapiens, UniProt P53671); conditions: 1 μM, KmATP
BMPR1B (ALK6) = BMPR1B (ALK6) (Homo sapiens, UniProt O00238)
CLK4 = CLK4 (Homo sapiens, UniProt Q9HAZ1); conditions: 1 μM, KmATP
CDK9 (Inactive) = CDK9 (Inactive) (Homo sapiens, UniProt P50750); conditions: 1 μM, KmATP
MYO3B = MYO3B (Homo sapiens, UniProt Q8WXR4); conditions: 1 μM, KmATP
MAP3K14 (NIK) = MAP3K14 (NIK) (Homo sapiens, UniProt Q99558); conditions: 1 μM, KmATP
DDR1 = DDR1 (Homo sapiens, UniProt Q08345); conditions: 1 μM, KmATP
EPHA6 = EPHA6 (Homo sapiens, UniProt Q9UF33); conditions: 1 μM, KmATP
DYRK2 = DYRK2 (Homo sapiens, UniProt Q92630); conditions: 1 μM, KmATP
ULK1 = ULK1 (Homo sapiens, UniProt O75385); conditions: 1 μM, KmATP
TGFBR1 (ALK5) = TGFBR1 (ALK5) (Homo sapiens, UniProt P36897)
AMPK (A2/B2/G2) = AMPK (A2/B2/G2) (Homo sapiens, UniProt P54646); conditions: 1 μM, KmATP
MAPK8 (JNK1) = MAPK8 (JNK1) (Homo sapiens, UniProt P45983); conditions: 1 μM, KmATP
DDR2 Hu Bind = DDR2 Hu Bind (Homo sapiens, UniProt Q16832); conditions: 1 μM, KmATP

Protein sequences, listed by entry. Tags and fused reporters are not part of them. Residues count along the entry.
UniProt Q9Y616, whole entry: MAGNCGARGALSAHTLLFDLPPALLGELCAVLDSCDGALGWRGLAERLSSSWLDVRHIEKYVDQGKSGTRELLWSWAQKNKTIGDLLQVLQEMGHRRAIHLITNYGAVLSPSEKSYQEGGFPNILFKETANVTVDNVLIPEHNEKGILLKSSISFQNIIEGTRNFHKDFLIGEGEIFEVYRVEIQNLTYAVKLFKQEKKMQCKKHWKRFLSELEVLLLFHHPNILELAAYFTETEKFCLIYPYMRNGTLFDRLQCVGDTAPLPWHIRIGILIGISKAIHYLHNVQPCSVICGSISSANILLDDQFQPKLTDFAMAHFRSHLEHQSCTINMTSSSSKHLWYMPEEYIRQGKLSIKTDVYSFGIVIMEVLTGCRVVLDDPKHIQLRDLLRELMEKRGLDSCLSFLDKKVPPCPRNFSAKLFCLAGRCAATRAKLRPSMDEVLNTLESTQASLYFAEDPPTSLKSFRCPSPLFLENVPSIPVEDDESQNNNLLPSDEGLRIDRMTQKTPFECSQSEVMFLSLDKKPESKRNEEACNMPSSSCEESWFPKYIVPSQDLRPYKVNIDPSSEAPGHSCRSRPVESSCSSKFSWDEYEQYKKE
UniProt Q13555, whole entry: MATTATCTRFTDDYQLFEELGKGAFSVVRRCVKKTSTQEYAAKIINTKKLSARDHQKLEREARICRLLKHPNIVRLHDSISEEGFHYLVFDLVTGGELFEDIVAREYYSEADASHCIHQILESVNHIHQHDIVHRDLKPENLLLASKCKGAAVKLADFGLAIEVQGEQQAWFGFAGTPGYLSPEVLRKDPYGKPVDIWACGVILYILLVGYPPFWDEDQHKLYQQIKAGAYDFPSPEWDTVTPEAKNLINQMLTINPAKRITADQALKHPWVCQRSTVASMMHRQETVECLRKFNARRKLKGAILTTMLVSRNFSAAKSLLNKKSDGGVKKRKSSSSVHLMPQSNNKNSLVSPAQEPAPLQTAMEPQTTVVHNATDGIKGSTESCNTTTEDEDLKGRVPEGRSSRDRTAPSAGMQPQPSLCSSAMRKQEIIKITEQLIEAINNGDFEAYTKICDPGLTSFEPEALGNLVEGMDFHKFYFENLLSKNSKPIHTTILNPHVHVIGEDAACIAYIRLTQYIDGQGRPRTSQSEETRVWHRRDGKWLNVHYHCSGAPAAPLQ
UniProt Q86YV6, whole entry: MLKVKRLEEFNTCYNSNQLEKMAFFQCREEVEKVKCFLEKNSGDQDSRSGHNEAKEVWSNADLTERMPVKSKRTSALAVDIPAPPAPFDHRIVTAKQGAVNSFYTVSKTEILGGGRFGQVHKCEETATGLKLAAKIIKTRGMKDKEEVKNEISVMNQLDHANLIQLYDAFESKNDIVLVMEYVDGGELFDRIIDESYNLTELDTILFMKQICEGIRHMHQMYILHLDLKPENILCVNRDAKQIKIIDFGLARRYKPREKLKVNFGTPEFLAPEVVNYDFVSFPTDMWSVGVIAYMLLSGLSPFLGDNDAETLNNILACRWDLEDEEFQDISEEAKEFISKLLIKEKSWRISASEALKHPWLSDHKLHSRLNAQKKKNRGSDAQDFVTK
UniProt O75716, whole entry: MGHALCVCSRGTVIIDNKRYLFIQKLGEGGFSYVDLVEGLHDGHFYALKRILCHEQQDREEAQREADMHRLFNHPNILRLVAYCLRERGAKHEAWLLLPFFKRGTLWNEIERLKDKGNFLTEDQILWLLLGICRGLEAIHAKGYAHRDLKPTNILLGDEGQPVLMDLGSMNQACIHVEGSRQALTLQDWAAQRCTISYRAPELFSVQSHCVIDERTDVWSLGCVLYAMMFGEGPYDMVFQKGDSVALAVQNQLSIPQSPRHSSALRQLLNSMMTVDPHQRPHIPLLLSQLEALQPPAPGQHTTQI
UniProt P50750, whole entry: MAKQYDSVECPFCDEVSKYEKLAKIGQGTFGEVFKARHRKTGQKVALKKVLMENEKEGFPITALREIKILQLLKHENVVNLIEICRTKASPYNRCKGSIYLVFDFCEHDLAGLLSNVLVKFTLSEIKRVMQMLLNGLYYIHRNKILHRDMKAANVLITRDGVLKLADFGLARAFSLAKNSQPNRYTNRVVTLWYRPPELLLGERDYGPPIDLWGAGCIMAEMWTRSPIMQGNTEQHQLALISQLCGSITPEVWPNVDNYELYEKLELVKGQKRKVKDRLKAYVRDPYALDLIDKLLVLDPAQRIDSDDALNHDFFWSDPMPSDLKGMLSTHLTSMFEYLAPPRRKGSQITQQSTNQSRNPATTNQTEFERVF
UniProt Q9H093, whole entry: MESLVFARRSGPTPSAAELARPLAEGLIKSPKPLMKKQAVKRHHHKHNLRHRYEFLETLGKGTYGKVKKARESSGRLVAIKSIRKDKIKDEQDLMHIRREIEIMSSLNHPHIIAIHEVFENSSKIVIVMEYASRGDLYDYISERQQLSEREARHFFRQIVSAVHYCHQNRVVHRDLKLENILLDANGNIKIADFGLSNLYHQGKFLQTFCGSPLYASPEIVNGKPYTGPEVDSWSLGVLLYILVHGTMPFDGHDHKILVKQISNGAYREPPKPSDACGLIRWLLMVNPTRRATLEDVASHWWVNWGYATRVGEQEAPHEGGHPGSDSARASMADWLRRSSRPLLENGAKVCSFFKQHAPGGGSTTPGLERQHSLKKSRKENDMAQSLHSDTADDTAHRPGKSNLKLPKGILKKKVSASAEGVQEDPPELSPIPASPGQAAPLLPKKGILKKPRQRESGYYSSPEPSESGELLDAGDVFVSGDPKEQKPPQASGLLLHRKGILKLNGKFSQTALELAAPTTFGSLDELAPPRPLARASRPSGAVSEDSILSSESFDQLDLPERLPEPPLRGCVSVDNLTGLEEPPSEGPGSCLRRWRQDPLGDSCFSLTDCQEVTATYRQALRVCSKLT
UniProt Q76MJ5, 35-926 limits assumed: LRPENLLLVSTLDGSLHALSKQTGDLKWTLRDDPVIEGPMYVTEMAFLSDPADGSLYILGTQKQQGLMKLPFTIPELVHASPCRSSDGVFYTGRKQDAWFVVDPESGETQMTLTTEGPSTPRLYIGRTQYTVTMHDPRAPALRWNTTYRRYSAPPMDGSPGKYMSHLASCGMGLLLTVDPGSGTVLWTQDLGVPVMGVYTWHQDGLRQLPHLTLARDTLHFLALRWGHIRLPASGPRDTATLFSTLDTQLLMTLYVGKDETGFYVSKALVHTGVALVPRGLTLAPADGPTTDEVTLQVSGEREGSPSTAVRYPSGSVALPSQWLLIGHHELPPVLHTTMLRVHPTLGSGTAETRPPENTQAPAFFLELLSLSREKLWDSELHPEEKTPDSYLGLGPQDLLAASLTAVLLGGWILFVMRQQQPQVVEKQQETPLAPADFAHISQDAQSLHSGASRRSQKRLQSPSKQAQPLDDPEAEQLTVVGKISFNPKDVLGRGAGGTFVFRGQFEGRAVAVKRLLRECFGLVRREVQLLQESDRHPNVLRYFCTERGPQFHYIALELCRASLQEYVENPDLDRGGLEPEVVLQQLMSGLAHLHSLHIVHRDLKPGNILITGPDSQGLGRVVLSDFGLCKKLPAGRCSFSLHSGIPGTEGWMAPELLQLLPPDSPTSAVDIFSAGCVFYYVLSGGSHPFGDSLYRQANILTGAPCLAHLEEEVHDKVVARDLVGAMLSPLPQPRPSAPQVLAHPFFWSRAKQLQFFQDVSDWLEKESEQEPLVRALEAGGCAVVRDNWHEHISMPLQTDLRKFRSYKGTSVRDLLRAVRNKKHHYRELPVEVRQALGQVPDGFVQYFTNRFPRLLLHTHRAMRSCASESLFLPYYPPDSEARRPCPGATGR
UniProt Q8IWQ3, whole entry: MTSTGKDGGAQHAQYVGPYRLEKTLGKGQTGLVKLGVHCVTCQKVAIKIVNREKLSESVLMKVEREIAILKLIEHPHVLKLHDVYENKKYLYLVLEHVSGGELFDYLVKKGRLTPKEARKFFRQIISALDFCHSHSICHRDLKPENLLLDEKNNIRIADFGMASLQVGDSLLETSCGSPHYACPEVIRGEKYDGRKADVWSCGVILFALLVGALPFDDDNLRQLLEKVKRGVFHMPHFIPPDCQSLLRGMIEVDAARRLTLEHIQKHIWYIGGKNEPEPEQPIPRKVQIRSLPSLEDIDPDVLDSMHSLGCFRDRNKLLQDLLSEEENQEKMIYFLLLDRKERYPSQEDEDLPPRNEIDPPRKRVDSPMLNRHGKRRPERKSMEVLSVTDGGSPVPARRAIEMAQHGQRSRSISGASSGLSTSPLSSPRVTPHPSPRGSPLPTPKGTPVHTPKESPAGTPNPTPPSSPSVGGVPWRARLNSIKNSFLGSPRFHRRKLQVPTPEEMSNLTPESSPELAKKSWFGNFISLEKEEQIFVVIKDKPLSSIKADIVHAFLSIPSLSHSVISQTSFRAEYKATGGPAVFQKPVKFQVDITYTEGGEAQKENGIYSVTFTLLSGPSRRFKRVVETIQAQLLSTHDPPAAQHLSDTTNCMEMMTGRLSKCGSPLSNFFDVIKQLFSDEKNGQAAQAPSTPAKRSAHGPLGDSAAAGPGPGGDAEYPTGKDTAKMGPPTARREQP
UniProt P53671, whole entry: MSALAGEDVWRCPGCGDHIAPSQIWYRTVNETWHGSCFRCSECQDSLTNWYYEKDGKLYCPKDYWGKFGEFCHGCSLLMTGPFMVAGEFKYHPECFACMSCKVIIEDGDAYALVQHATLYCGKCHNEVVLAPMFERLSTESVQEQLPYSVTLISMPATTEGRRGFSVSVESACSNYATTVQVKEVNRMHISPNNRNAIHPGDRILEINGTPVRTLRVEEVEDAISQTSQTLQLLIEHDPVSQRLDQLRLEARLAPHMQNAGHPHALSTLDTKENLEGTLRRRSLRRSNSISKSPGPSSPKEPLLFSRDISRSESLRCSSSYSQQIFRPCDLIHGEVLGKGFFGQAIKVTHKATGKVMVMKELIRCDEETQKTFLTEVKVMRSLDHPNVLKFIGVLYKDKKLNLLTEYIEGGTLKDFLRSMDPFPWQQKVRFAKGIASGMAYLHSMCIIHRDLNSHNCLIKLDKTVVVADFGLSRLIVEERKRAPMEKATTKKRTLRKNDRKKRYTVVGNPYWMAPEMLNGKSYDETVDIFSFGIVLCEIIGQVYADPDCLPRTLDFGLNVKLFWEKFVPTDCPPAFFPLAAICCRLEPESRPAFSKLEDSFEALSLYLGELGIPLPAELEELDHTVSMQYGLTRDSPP
UniProt Q9HAZ1, whole entry: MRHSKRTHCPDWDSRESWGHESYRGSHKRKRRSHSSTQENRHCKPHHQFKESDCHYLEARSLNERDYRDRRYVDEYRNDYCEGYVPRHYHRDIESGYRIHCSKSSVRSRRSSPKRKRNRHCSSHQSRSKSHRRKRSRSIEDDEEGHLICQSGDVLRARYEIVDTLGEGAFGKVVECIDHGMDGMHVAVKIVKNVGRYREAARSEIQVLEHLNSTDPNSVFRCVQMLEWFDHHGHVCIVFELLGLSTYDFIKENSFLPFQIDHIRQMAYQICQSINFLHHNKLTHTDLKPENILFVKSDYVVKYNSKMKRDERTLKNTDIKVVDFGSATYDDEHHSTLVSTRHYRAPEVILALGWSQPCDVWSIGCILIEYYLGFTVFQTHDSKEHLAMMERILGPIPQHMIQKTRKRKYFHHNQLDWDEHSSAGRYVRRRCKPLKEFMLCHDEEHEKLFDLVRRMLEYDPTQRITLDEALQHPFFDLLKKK
UniProt Q99558, whole entry: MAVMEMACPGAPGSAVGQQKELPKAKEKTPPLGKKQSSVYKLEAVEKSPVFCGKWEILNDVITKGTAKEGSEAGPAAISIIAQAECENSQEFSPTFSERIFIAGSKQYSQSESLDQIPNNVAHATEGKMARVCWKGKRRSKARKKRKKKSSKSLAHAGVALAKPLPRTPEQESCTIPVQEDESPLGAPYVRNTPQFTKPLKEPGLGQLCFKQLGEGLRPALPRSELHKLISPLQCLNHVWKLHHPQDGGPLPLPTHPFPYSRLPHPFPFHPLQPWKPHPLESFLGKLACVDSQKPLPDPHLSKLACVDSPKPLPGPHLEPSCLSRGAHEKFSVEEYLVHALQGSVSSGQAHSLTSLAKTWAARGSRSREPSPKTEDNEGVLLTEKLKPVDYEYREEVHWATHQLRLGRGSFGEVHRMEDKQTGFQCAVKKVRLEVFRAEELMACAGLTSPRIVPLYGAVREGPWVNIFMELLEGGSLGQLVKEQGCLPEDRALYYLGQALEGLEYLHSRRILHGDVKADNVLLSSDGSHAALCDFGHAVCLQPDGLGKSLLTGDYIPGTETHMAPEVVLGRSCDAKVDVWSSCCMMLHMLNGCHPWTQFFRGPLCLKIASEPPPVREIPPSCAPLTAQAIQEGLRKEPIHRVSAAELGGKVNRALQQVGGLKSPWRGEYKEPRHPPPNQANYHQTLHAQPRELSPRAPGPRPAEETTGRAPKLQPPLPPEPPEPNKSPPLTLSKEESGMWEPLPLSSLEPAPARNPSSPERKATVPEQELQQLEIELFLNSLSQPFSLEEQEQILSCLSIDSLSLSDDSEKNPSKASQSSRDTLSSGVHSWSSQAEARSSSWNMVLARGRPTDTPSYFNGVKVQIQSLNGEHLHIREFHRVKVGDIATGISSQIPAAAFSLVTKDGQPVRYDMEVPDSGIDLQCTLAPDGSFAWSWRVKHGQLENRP

## Cc1nc(C(F)(F)F)c2c(C(N)=O)c(N)n(-c3c(C)ccc(O)c3C)c2n1 (single isomer, unassigned)
IRAK3
  MEAN INHIBITION: 14.866%
DMPK
  MEAN INHIBITION: 3.222%
CAMK2G
  MEAN INHIBITION: 5.694%
CDK11(Inactive)
  MEAN INHIBITION: −2.904%
ULK3
  MEAN INHIBITION: 8.518%
BMPR2
  MEAN INHIBITION: −4.214%
MYLK4
  MEAN INHIBITION: −1.538%
TEC
  MEAN INHIBITION: −5.136%
STK16 (PKL12)
  MEAN INHIBITION: 2.533%
SIK3
  MEAN INHIBITION: 15.273%
CDK2/Cyclin O
  MEAN INHIBITION: −2.029%
MAPK10 (JNK3)
  MEAN INHIBITION: 4.282%
CDK9/cyclin K
  MEAN INHIBITION: 0.354%
TTK
  MEAN INHIBITION: −3.632%
SIK1
  MEAN INHIBITION: 17.289%
NUAK2
  MEAN INHIBITION: −1.795%
MAP2K6 (MKK6)
  MEAN INHIBITION: 2.457%
LATS2
  MEAN INHIBITION: 11.623%
ACVR1 (ALK2); 1 μM, KmATP
  MEAN INHIBITION: 80.237%
ACVR1 (ALK2); 10-point CR, top 10 μM
  IC50: 0.172 µM
PRKACB
  MEAN INHIBITION: 3.852%
GAK
  MEAN INHIBITION: 0.979%
ERN2
  MEAN INHIBITION: 23.587%
STK38L (NDR2)
  MEAN INHIBITION: 12.492%
CAMKK2 (Beta)
  MEAN INHIBITION: 2.806%
BRSK2
  MEAN INHIBITION: 13.846%
CDK3/cyclin E1
  MEAN INHIBITION: −4.312%
LIMK2
  MEAN INHIBITION: −0.783%
BMPR1B (ALK6); 1 μM, KmATP
  MEAN INHIBITION: 96.641%
BMPR1B (ALK6); 10-point CR, top 10 μM
  IC50: 0.036 µM
CLK4
  MEAN INHIBITION: 7.663%
CDK9 (Inactive)
  MEAN INHIBITION: −2.367%
MYO3B
  MEAN INHIBITION: 9.952%
MAP3K14 (NIK)
  MEAN INHIBITION: −2.232%
DDR1
  MEAN INHIBITION: 7.439%
EPHA6
  MEAN INHIBITION: −0.902%
DYRK2
  MEAN INHIBITION: 0.289%
ULK1
  MEAN INHIBITION: 0.045%
TGFBR1 (ALK5); 1 μM, KmATP
  MEAN INHIBITION: 83.957%
TGFBR1 (ALK5); 10-point CR, top 10 μM
  IC50: 0.119 µM
AMPK (A2/B2/G2)
  MEAN INHIBITION: 1.418%
MAPK8 (JNK1)
  MEAN INHIBITION: 2.729%
DDR2 Hu Bind
  MEAN INHIBITION: −0.431%

— patent US20260384438A1, “PYRROLOPYRIMIDINE CARBOXAMIDES” (published 2026)
